Like-named read-outs stand apart in the source and are kept apart here.
Experiments:
[1] = target: T1, DRB1*0301 (DR3w17) (Homo sapiens, UniProt P01903+P01911, A100K/A102G/A103R/A169T/F55Y/I96L/K41T/L162R/M171V/P40S/Q125H/Q178H/Q39Y/R42S/S66N/T106N/T262R/W38E/Y61H); assay: Class II peptide-binding assay, DR3 (pH 4.5); settings: Table VIII;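 also: unlabeled peptide competing with a radiolabeled probe peptide for binding to affinity-purified HLA-DR3, IC50 regarded as an approximation of Kd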
T1 construct: used as sources of human HLA class II molecules; endogenous in cells; host or cells: MAT (EBV-transformed homozygous B cell line)

[2] = target: T2, DRB1*0101 (DR1) (Homo sapiens, UniProt P01903+P01911, A100R/D57E/F55L/F60I/F76Y/I96L/L162R/M171V/P40L/Q125E/R42F/V115G/Y59C); assay: Class II peptide-binding assay, DR1;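 also: competition assay: unlabeled test peptides inhibit binding of a radiolabeled probe peptide to purified DR, with half-maximal inhibition taken as an approximate dissociation constant Kd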
T2 construct: used as sources of human HLA class II molecules; endogenous in cells; host or cells: LG2 (EBV-transformed homozygous B cell line)

[3] = target: T3, DRB10404 (DR4w14) (Homo sapiens, UniProt P01903+P01911, A100R/A169T/F76Y/I96L/K127E/L162R/M171V/N62H/P40V/Q125Y/R42H/S133A/S149N/S66Y/V209L/W38E); assay: Class II peptide-binding assay, DR4w14;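 also: unlabeled peptides compete with a radiolabeled probe for binding to affinity-purified HLA-DR, neutral pH, class II amount titrated to bind a small fraction of label, IC50 approximates Kd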
T3 construct: used as sources of human HLA class II molecules; endogenous in cells; host or cells: BIN40 (EBV-transformed homozygous B cell line)

[4] = read-out: In IC50 Format DR3 nM, values in parentheses read as lower bounds
[5] = read-out: DR4w14 nM (In IC50 Format), purified HLA DR4w14

With CC[C@H](C)[C@H](NC(=O)[C@H](CCC(N)=O)NC(=O)[C@H](CC(N)=O)NC(=O)[C@H](CC(=O)O)NC(=O)CNC(=O)[C@H](CC(C)C)NC(=O)[C@H](CC(C)C)NC(=O)CNC(=O)[C@H](CC(=O)O)NC(=O)[C@H](Cc1ccc(O)cc1)NC(=O)[C@H](CO)NC(=O)[C@H](CC(C)C)NC(=O)CNC(=O)[C@H](CC(C)C)NC(=O)[C@@H](N)CS)C(=O)O [Peptide 39.0403] the IC50 ([1]; read-out: In IC50 Format DR3) was > 120 µM.

CC[C@H](C)[C@H](NC(=O)[C@H](CCCCN)NC(=O)[C@H](CC(C)C)NC(=O)[C@@H](NC(=O)[C@H](Cc1c[nH]cn1)NC(=O)[C@H](Cc1c[nH]cn1)NC(=O)[C@H](CC(C)C)NC(=O)[C@@H](NC(=O)[C@H](CCCCN)NC(=O)[C@@H](N)C(C)C)C(C)C)[C@@H](C)O)C(=O)NCC(=O)NCC(=O)N[C@@H](CCC(=O)O)C(=O)N1CCC[C@H]1C(=O)N[C@@H](Cc1c[nH]cn1)C(=O)O [Peptide 39.0397] was tested, and the IC50 ([1]; read-out: In IC50 Format DR3) was > 120 µM.

In the case of CSCC[C@H](NC(=O)[C@@H](NC(=O)[C@H](CCC(N)=O)NC(=O)[C@H](CC(N)=O)NC(=O)[C@H](CC(=O)O)NC(=O)CNC(=O)[C@H](CC(C)C)NC(=O)[C@H](CC(C)C)NC(=O)CNC(=O)[C@H](CC(=O)O)NC(=O)[C@@H](N)Cc1ccc(O)cc1)C(C)C)C(=O)N1CCC[C@H]1C(=O)N[C@@H](CCCCN)C(=O)N[C@H](C(=O)NCC(=O)O)[C@@H](C)O [Peptide 39.0391], the IC50 [1, 4] is reported as 11.1 µM.

For NQIMPKAGLLIIVLA [Peptide 39.0302], the IC50 ([2]; read-out: In IC50 Format DR1) was 0.114 µM.

CC[C@H](C)[C@H](NC(=O)[C@H](C)NC(=O)[C@H](CC(C)C)NC(=O)[C@@H](NC(=O)[C@@H](NC(=O)[C@@H](NC(=O)[C@H](CC(C)C)NC(=O)[C@H](CC(C)C)NC(=O)CNC(=O)[C@H](C)N)[C@@H](C)CC)[C@@H](C)CC)C(C)C)C(=O)N[C@H](C(=O)N[C@@H](C)C(=O)N[C@@H](CCCNC(=N)N)C(=O)N[C@@H](CCC(=O)O)C(=O)NCC(=O)O)[C@@H](C)CC [Peptide 39.0304] was tested, and the IC50 ([2]; Table VIII, page 2, read-out: In IC50 Format DR1) was 1.11 µM.

With NQVMPKTGLLIIVLA [Peptide 39.0286] the IC50 ([2]; read-out: In IC50 Format DR1) was 2.63 µM.

With CC(C)C[C@H](NC(=O)[C@H](CC(N)=O)NC(=O)[C@H](C)NC(=O)CN)C(=O)N[C@@H](CC(N)=O)C(=O)N[C@@H](CC(C)C)C(=O)N[C@@H](CO)C(=O)N[C@@H](CS)C(=O)N[C@@H](Cc1c[nH]cn1)C(=O)N[C@@H](CO)C(=O)N[C@@H](C)C(=O)N[C@@H](CO)C(=O)N[C@@H](CC(N)=O)C(=O)N1CCC[C@H]1C(=O)N[C@@H](CO)C(=O)O [Peptide 39.0337] the IC50 [1, 4] was > 111 µM.

CC[C@H](C)[C@H](NC(=O)[C@H](C)NC(=O)[C@@H](NC(=O)[C@@H](NC(=O)[C@H](C)NC(=O)[C@@H](N)CC(C)C)[C@@H](C)CC)[C@@H](C)CC)C(=O)N[C@@H](CCC(=O)O)C(=O)NCC(=O)N[C@@H](CC(=O)O)C(=O)N[C@@H](CS)C(=O)N[C@@H](C)C(=O)N1CCC[C@H]1C(=O)N[C@@H](CCC(=O)O)C(=O)N[C@@H](CCC(=O)O)C(=O)N[C@@H](CCCCN)C(=O)O [Peptide 39.0392] was tested, and the IC50 [1, 4] was 15.8 µM.

In the case of CC(C)C[C@H](NC(=O)[C@H](Cc1ccc(O)cc1)NC(=O)[C@H](CCCCN)NC(=O)[C@H](CO)NC(=O)[C@H](CCCNC(=N)N)NC(=O)[C@H](CCC(N)=O)NC(=O)[C@H](CO)NC(=O)[C@@H]1CCCN1C(=O)[C@H](CCCNC(=N)N)NC(=O)[C@H](CCCCN)NC(=O)[C@H](CCC(N)=O)NC(=O)[C@H](CO)NC(=O)[C@H](C)N)C(=O)N[C@@H](C)C(=O)N[C@H](C(=O)N[C@@H](C)C(=O)N[C@@H](CO)C(=O)N[C@H](C(=O)O)[C@@H](C)O)[C@@H](C)O [Peptide 765.011], the IC50 [3, 5] is reported as 2.63 µM.

With CC[C@H](C)[C@H](NC(=O)[C@H](C)NC(=O)[C@H](C)NC(=O)[C@H](CCC(N)=O)NC(=O)[C@H](Cc1ccccc1)NC(=O)[C@H](CCC(=O)O)NC(=O)[C@H](CO)NC(=O)[C@H](CCC(=O)O)NC(=O)[C@H](CC(C)C)NC(=O)[C@H](CC(=O)O)NC(=O)[C@@H]1CCCN1C(=O)[C@@H](N)Cc1ccccc1)C(=O)N[C@@H](CO)C(=O)N[C@@H](CCCNC(=N)N)C(=O)N[C@@H](CCCCN)C(=O)O [Peptide 39.0387] the IC50 [1, 4] was 90.9 µM.

CC[C@H](C)[C@H](NC(=O)[C@H](CCCCN)NC(=O)[C@H](CCC(=O)O)NC(=O)[C@@H](N)CCC(=O)O)C(=O)N[C@@H](Cc1c[nH]c2ccccc12)C(=O)N[C@@H](CCC(=O)O)C(=O)N[C@@H](CCC(=O)O)C(=O)N[C@@H](CC(C)C)C(=O)N[C@@H](CO)C(=O)N[C@H](C(=O)N[C@@H](CC(C)C)C(=O)N[C@@H](CCC(=O)O)C(=O)N[C@H](C(=O)N[C@@H](Cc1ccccc1)C(=O)N[C@@H](CCC(=O)O)C(=O)O)C(C)C)C(C)C [Peptide 39.0406] was tested, and the IC50 ([1]; read-out: In IC50 Format DR3) was 51.7 µM.

CC[C@H](C)[C@H](NC(=O)[C@H](CCCCN)NC(=O)[C@H](CC(C)C)NC(=O)[C@@H](N)[C@@H](C)O)C(=O)NCC(=O)NCC(=O)N[C@@H](CCC(=O)O)C(=O)N1CCC[C@H]1C(=O)N[C@@H](Cc1c[nH]cn1)C(=O)N[C@H](C(=O)N[C@@H](CO)C(=O)N[C@@H](Cc1ccc(O)cc1)C(=O)N1CCC[C@H]1C(=O)N1CCC[C@H]1C(=O)N[C@@H](CC(C)C)C(=O)O)[C@@H](C)CC [Peptide 39.0398] was tested, and the IC50 ([1]; read-out: In IC50 Format DR3) was > 120 µM.

Compound CC[C@H](C)[C@H](NC(=O)[C@H](CCC(N)=O)NC(=O)[C@H](CC(N)=O)NC(=O)[C@H](CC(=O)O)NC(=O)CNC(=O)[C@H](CC(C)C)NC(=O)[C@H](CC(C)C)NC(=O)CNC(=O)[C@H](CC(=O)O)NC(=O)[C@@H](N)Cc1ccc(O)cc1)C(=O)N[C@@H](CCSC)C(=O)N1CCC[C@H]1C(=O)N[C@@H](CCCCN)C(=O)N[C@@H](C)C(=O)NCC(=O)O [Peptide 39.0404] has an IC50 ([1]; read-out: In IC50 Format DR3) of 37.5 µM.

In the case of CC(C)C[C@H](NC(=O)[C@@H](NC(=O)[C@@H](NC(=O)[C@H](CCC(N)=O)NC(=O)[C@H](CO)NC(=O)[C@H](CCC(N)=O)NC(=O)[C@H](Cc1ccccc1)NC(=O)[C@H](CCCNC(=N)N)NC(=O)[C@H](C)NC(=O)[C@@H](N)Cc1ccc(O)cc1)[C@@H](C)O)[C@@H](C)O)C(=O)N[C@@H](CCC(=O)O)C(=O)N[C@@H](C)C(=O)N[C@@H](CCCCN)C(=O)N[C@H](C(N)=O)[C@@H](C)O [Peptide 717.22], the IC50 [3, 5] is reported as 0.0227 µM.

With CC[C@H](C)[C@H](NC(=O)CNC(=O)[C@H](Cc1ccccc1)NC(=O)[C@@H](NC(=O)[C@H](CC(C)C)NC(=O)[C@@H](N)CCC(N)=O)C(C)C)C(=O)N[C@@H](CCC(=O)O)C(=O)N[C@@H](CC(C)C)C(=O)N[C@@H](CCSC)C(=O)N[C@@H](CCC(=O)O)C(=O)N[C@H](C(=O)N[C@@H](CC(=O)O)C(=O)N1CCC[C@H]1C(=O)N[C@H](C(=O)NCC(=O)O)[C@@H](C)CC)C(C)C [Peptide 39.0401] the IC50 ([1]; read-out: In IC50 Format DR3) was 20 µM.

For CC[C@H](C)[C@H](NC(=O)CNC(=O)[C@H](CO)NC(=O)[C@H](CC(C)C)NC(=O)[C@H](CC(N)=O)NC(=O)[C@H](C)NC(=O)[C@H](CO)NC(=O)[C@H](CO)NC(=O)[C@H](CO)NC(=O)[C@H](Cc1ccccc1)NC(=O)[C@@H](NC(=O)[C@H](CC(=O)O)NC(=O)[C@@H](NC(=O)[C@@H](NC(=O)CNC(=O)[C@H](CCSC)NC(=O)[C@H](C)NC(=O)[C@H](CCSC)NC(=O)[C@@H](N)CC(C)C)[C@@H](C)CC)[C@@H](C)O)C(C)C)C(=O)O [Peptide 705.08], the IC50 [3, 5] was 0.114 µM.

Compound C[C@H](NC(=O)[C@H](CCCCN)NC(=O)[C@H](CCC(=O)O)NC(=O)[C@@H](NC(=O)[C@@H](NC(=O)[C@H](CCC(=O)O)NC(=O)[C@H](CO)NC(=O)[C@H](CCC(N)=O)NC(=O)[C@H](Cc1ccccc1)NC(=O)[C@H](CCCNC(=N)N)NC(=O)[C@H](C)NC(=O)[C@@H](N)Cc1ccc(O)cc1)[C@@H](C)O)[C@@H](C)O)C(=O)N[C@@H](CCCCN)C(=O)N[C@H](C(N)=O)[C@@H](C)O [Peptide 717.07] has an IC50 ([2]; read-out: DR1 nM (In IC50 Format), purified HLA DR1) of 0.278 µM.

Compound CC(C)C[C@H](NC(=O)[C@@H](NC(=O)[C@@H](NC(=O)[C@H](CCC(N)=O)NC(=O)[C@H](CO)NC(=O)[C@H](CCC(N)=O)NC(=O)[C@H](Cc1ccccc1)NC(=O)[C@H](CCCNC(=N)N)NC(=O)[C@H](C)NC(=O)[C@H](N)Cc1ccc(O)cc1)[C@@H](C)O)[C@@H](C)O)C(=O)N[C@@H](CCCCN)C(=O)N[C@@H](C)C(=O)N[C@@H](CCCCN)C(=O)N[C@@H](C(N)=O)[C@H](C)O [Peptide 858.06] has an IC50 ([3]; read-out: DR4w14 nM, Table VIII, In IC50 Format) of 0.0227 µM.

CC[C@H](C)[C@H](NC(=O)[C@H](CCCCN)NC(=O)[C@H](CCC(=O)O)NC(=O)[C@@H](N)CCC(=O)O)C(=O)N[C@@H](Cc1c[nH]c2ccccc12)C(=O)N[C@@H](CCC(=O)O)C(=O)N[C@@H](CCC(=O)O)C(=O)N[C@@H](CC(C)C)C(=O)N[C@@H](CO)C(=O)N[C@@H](CCSC)C(=O)N[C@@H](CC(C)C)C(=O)N[C@@H](CCC(=O)O)C(=O)N[C@H](C(=O)N[C@@H](Cc1ccccc1)C(=O)N[C@@H](CCC(=O)O)C(=O)O)C(C)C [Peptide 39.0394] showed an IC50 [1, 4] of 23.1 µM.

For CC(C)C[C@H](NC(=O)[C@H](C)NC(=O)[C@H](C)NC(=O)[C@H](CCC(N)=O)NC(=O)[C@H](Cc1ccccc1)NC(=O)[C@H](CCC(=O)O)NC(=O)[C@H](CO)NC(=O)[C@H](CCC(=O)O)NC(=O)[C@H](CC(C)C)NC(=O)[C@H](CC(=O)O)NC(=O)[C@@H]1CCCN1C(=O)[C@@H](N)Cc1ccccc1)C(=O)N[C@@H](CO)C(=O)N[C@@H](CCCNC(=N)N)C(=O)N[C@@H](CCCCN)C(=O)O [Peptide 39.0399], the IC50 ([1]; read-out: In IC50 Format DR3) was 115 µM.
